One compound from patent publication US7977481B2, “Pyrimidinyl-thiophene kinase modulators” (SGX Pharmaceuticals, Inc., priority 2005, dated 2011) can be followed below.

The chains behind the UniProt entries cited, without tags or fusion partners.
UniProt O14965, whole entry: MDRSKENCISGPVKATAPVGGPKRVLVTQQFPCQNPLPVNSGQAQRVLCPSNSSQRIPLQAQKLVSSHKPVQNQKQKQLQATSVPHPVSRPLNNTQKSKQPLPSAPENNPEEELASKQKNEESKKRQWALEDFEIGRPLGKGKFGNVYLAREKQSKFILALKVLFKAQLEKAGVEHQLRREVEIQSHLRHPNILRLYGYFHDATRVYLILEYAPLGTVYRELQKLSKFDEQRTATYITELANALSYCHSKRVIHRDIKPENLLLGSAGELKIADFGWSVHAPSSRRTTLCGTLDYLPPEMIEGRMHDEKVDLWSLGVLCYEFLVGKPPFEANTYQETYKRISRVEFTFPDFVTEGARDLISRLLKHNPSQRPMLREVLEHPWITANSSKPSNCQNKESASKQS

The target of this assay is Autophosphorylated AurA kinase (Homo sapiens, UniProt O14965). The assay is described as follows: AurA Luminescence-Based ATP Depletion Enzyme Assay. The note with it: read-out: AurA enzyme IC50; 10 μM ATP. The procedure: AurA Luminescence-Based ATP Depletion Enzyme Assay
Materials: Kemptide peptide substrate=LRRASLG (Biopeptide, San Diego, Calif.), ATP (Sigma Cat#A-3377, FW=551), HEPES buffer, pH 7.5, 10% Brij 35 (Calbiochem Cat#203728), MgCl2, Staurosporine (Streptomyces sp. Sigma Cat#85660-1MG), white Costar 384-well flat-bottom plate (VWR Cat#29444-088), Autophosphorylated AurA kinase (see below), Kinase-Glo™ (Promega Cat#V6712).
Stock Solutions: 10 mM Kemptide peptide (7.72 mg/ml in water), stored at −20° C.; 100 mM HEPES buffer+0.015% Brij 35, pH 7.5 (5 ml 1M HEPES stock+75 μL 10% Brij 35+45 ml miliQH2O); 10 mM ATP (5.51 mg/ml in dH2O) stored at −20° C. (diluted 50 μl into total of 10 ml miliQH2O daily=50 μM ATP working stock); 100 mM MgCl2; 200 μM Staurosporine, 2× Kinase-Glo™ reagent (made fresh or stored at −20° C.). […]
Standard Assay Setup for 384-well format (20 μl kinase reaction, 40 μl detection reaction): 10 mM MgCl2; 0.2 mM Kemptide peptide; 1 μl test compound (in DMSO); 0.3 μg/ml Autophosphorylated AurA kinase; 10 μM ATP; 100 mM HEPES+0.015% Brij buffer. […] Kinase reactions were incubated at 21° C. for 45 min, then 20 μl of Kinase-Glo™ reagent were added to each well to quench the kinase reaction and initiate the luminescence reaction. After a 20 min incubation at 21° C., the luminescence was detected in a plate-reading luminometer. […]

Where only a bound is given, the exact number is not on record here.

`COc1ccc(Nc2nccc(-c3ccc(S(=O)(=O)N4CC=CC4)s3)n2)cc1OC`: the IC50 was less than 100 nM.
